# Assay: Selectivity ratio of IC50 for human wild type JNK3 to IC50 for human IRE1alpha
row,Structure (SMILES),Ratio IC50
1,Cc1cc(Nc2nc3ccccc3o2)c2ccccc2c1Oc1ncccc1-c1ccnc(N[C@H]2CC[C@H](N)CC2)n1,0.5
2,Cc1cc(Nc2nc3ccccc3[nH]2)c2ccccc2c1Oc1ncccc1-c1ccnc(NCCN(C)C)n1,51
3,Cc1ccc2c(NS(=O)(=O)c3ccccc3Cl)cccc2c1Oc1ncccc1-c1ccnc(N[C@H]2CCCNC2)n1,192
4,N[C@H]1CC[C@H](Nc2nccc(-c3cccnc3Oc3ccc(Nc4nc5ccccc5[nH]4)c4ccccc34)n2)CC1,0.17
5,Cc1cc(Nc2nc3ccccc3[nH]2)c2ccccc2c1Oc1ncccc1-c1ccnc(N[C@H]2CCCNC2)n1,3.9
6,Cc1cc(NS(=O)(=O)c2ccccc2C#N)c2ccccc2c1Oc1ncccc1-c1ccnc(N[C@H]2CC[C@H](N)CC2)n1,33
7,CN(C)CCNc1nccc(-c2cccnc2Oc2ccc(Nc3nc4ccccc4[nH]3)c3ccccc23)n1,4.9
8,N[C@H]1CC[C@@H](Nc2nccc(-c3cccnc3Oc3ccc(Nc4nc5ccccc5[nH]4)c4ccccc34)n2)CC1,0.17

# From ChEMBL document CHEMBL3352477, “Unfolded Protein Response in Cancer: IRE1α Inhibition by Selective Kinase Ligands Does Not Impair Tumor Cell Viability” (ACS Med Chem Lett, 2015)
